Laboratory results as given in paper PMC7381267, “A Bromodomain-Containing Protein 4 (BRD4) Inhibitor Suppresses Angiogenesis by Regulating AP-1 Expression” (Frontiers in Pharmacology, 2020).

System: chick embryo CAM vasculature
Assay: Chick embryo chorioallantoic membrane (CAM) anti-angiogenesis assay; also: key: An inhibitory effect observable but not obvious on the generation of third-grade vessels was indicated by '+'; an obvious medium-level inhibitory effect on secondary vessels was indicated by '++'; an obvious potent inhibitory effect on primary blood vessels was indicated by '+++'
Format: in vivo
Settings: 50 μg/ml on CAM of 9-day-old chick embryos, 48 h; egg 5
Protocol: Fertilized white leghorn chicken eggs were obtained from the Avian Farm of South China Agriculture University (Guangzhou, China) and the shells were cleaned with 1% geramine. The eggs were incubated under 50–60% humidity at 37.5°C. A small window (10 × 10 mm^2) was cut above the air chamber of egg while the chick embryo was growing through the ninth day. BET family member inhibitors or DMSO (dissolved in 30 µl of phosphate-buffered saline [PBS, pH 7.4]) were placed directly onto the live chick embryo CAM through the window at the indicated concentrations and incubated for 48 h. Then, the eggshells were cut carefully along the axis of the median line, and the content was discarded. […] The microvessel density (MVD) was calculated as the percentage of blood vessel area in the total drug-treated area using the Image-Pro Plus 6.0 software (IPP 6.0, Media Cybernetics, Inc., Rockville MD, USA).
The effects of all these selected compounds on angiogenesis were first determined through use of the chick embryo CAM model. The CAM assay is a well-established model for screening anti-angiogenic agents, because the ability of compounds to prevent blood vessel formation can be easily detected ([Deryugina and Quigley, 2008]; [Chen et al., 2010]). […] The CAMs of chick embryos were photographed, and the inhibition ratio indicating angiogenesis was calculated and analyzed. […]

SMILES: Cc1sc2c(c1C)C(c1ccc(Cl)cc1)=N[C@@H](CC(=O)OC(C)(C)C)c1nnc(C)n1-2 [(+)-JQ1 (1), reference compound]
- Anti-angiogenic activity, egg number 5: +
